Experimental data as given in patent EP1068184B1, “N-ARYLOXYETHYLAMINE DERIVATIVES FOR THE TREATMENT OF DEPRESSION” (Wyeth, priority 1998, dated 1999).

Protein sequences, listed by entry. Tags and fused reporters are not part of them.
UniProt P31652, whole entry: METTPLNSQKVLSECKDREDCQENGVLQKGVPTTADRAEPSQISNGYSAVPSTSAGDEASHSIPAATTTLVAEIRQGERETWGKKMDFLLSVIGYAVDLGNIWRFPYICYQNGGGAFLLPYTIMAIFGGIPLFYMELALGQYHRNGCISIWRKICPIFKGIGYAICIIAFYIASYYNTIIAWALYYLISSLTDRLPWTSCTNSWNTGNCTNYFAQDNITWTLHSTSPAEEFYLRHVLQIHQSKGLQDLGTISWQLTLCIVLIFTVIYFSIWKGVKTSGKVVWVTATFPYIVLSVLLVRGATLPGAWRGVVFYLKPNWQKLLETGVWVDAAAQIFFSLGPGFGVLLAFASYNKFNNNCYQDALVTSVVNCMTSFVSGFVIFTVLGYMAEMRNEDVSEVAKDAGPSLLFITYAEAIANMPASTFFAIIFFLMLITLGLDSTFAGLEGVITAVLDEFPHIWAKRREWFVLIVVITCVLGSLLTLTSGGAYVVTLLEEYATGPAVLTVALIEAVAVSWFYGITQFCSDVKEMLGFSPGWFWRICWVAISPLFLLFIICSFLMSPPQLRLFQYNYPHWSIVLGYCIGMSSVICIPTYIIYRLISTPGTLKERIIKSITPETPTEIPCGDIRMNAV

Target: T1, serotonin transporter (Rattus norvegicus, UniProt P31652)
T1 construct: frontal cortical membranes prepared from male Sprague-Dawley rats; from tissue; host or cells: rat frontal cortex membranes
Assay: serotonin transporter affinity, 3H-paroxetine binding to frontal cortical membranes
Design: species or system male Sprague-Dawley rats
Conditions: read-out: ST (Ki)
Experimental: Briefly, frontal cortical membranes prepared from male Sprague-Dawley rats were incubated with ^3H-paroxetine (0.1 nM) for 60 min at 25°C. All tubes also contained either vehicle, test compound (one to eight concentrations), or a saturating concentration of fluoxetine (10 µM) to define specific binding. All reactions are terminated by the addition of ice cold Tris buffer followed by rapid filtration using a Tom Tech filtration device to separate bound from free ^3H-paroxetine.

[1] = 3H-paroxetine 0.1 nM, rat frontal cortical membranes

SMILES	Ki [1] [nM]	Ki [nM]
COc1ccccc1OCCN[C@H]1CC[C@H](c2c[nH]c3ccc(F)cc32)CC1 [Example 1b, [(trans)-4-(5-Fluoro-1H-indol-3-yl)-cyclohexyl]-[2-(2-methoxy-phenoxy)-ethyl]-amine]	6.48	–
OC1(CNCCOc2cccc3[nH]ccc23)CCC(c2c[nH]c3ccc(F)cc23)CC1 (stereo not drawn) [Example 13, (1,4)-4-(5-Fluoro-1H-indol-3-yl)-1-([2-(1H-indol-4-yloxy)-ethylamino]-methyl}-cyclohexanol]	–	21
COc1ccccc1OCCN[C@H]1CC[C@@H](c2c[nH]c3ccc(F)cc32)CC1 [Example 1a, [(cis)-4-(5-Fluoro-1H-indol-3-yl)-cyclohexyl]-[2-(2-methoxy-phenoxy)-ethyl]-amine]	6.76	–

Like-named read-outs stand apart in the source and are kept apart here.
